Results reported in patent publication US6448011B1, “DNA encoding human alpha 1 adrenergic receptors and uses thereof” (Synaptic Pharmaceutical Corporation, priority 1992, dated 2002).
“And” between values parts separate entries of the source, which are not always exact repeats. Equal values may be shown once. Values belong to the compound of their own block, whether it stands above or below them.

Assays:
[1] = molecular target: T1, human α1c-adrenergic receptor (Homo sapiens, UniProt P35348); test: biochemical
T1 sequence (P35348 1-466): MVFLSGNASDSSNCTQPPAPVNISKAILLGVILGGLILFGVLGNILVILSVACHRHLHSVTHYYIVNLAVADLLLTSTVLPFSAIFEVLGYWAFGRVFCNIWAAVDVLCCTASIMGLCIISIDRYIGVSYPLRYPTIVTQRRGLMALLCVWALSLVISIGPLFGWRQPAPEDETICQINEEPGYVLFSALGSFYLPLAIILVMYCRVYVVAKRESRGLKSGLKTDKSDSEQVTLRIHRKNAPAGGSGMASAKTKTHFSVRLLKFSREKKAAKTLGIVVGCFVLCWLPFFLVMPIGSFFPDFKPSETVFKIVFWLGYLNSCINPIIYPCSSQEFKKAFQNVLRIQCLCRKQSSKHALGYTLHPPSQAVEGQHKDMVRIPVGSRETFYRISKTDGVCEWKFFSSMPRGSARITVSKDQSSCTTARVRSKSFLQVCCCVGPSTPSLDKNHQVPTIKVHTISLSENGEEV

[2] = molecular target: T1, human α1c-adrenergic receptor; conditions: 10 μM NE, α1c transfected cell line, n=6
[3] = molecular target: T1, human α1c-adrenergic receptor; test: Competition for / saturation of [3H]prazosin binding to membranes of LM(tk-) cells expressing human α1c
[4] = read-out: affinity for the human α1c subtype

- Ki [1]: 197 nM
Compound: c1ccc2c(CC3=NCCN3)cccc2c1 [Naphazoline]

- Ki [1]: 103 nM
Compound: COc1ccccc1N1CCN(CCCNc2cc(=O)n(C)c(=O)n2C)CC1 [Urapidil]

- Ki [1]: 3.8 nM
Compound: O=C(CCCN1CCC(NC(=O)c2ccccc2)CC1)c1ccc(Cl)cc1 [Compound 7, 1-[3-(4-chlorobenzoyl)propyl]-4-benzamidopiperidine]

- increase of [Ca2+]i [2]: 224 ± 79 nM
Compound: NC[C@H](O)c1ccc(O)c(O)c1 [Norepinephrine]

Compound: 4-fluoro-4-(8-fluoro-1,3,4,5-tetrahydro-2H-pyrido[4,3-b]indol-2-yl)butyrophenone hydrochloride [Compound A-30360]
- Human Alpha-1 Adrenergic (pK1) a1C [3]: 8.52

Compound: Cc1cc(C(C)(C)C)cc(C)c1CC1=NCCN1 [Xylometazoline]
- Ki [3]: 31.7 nM
- fold higher potency at the α1c-AR [3]: 52 fold

Compound: COc1ccccc1N1CCN(CCCNc2c(C)c(=O)n(C)c(=O)n2C)CC1 [5-Methyl Urapidil, 5-methylurapidil]
- pKi α1c [3]: 8.160 ± 0.11
- Ki [3, 4]: 7 nM

- Ki [1]: 4.56 nM and 4.47 nM
Compound: O=C(NC1CCN(CCc2c[nH]c3ccccc23)CC1)c1ccccc1 [Indoramin]

Compound: O=C(CCCN1CCC(NC(=O)c2ccccc2)CC1)c1ccccc1 [Compound 9, 1-(3-benzoylpropyl)-4-benzamidopiperidine]
- Ki [3]: 14.8 nM

Compound: COc1cccc(OC)c1OCCNCC1COc2ccccc2O1 (stereo not shown) [WB-4101]
- pKi α1c [3]: 9.080 ± 0.09
- Ki [3, 4]: 0.8 nM
